Legend:
[1] = target: Recombinant human TYK2 catalytic domain (amino acids 871-1187) (Homo sapiens, UniProt P29597); test: TYK2 radioactive assay polyGT substrate; format: biochemical; details: read-out: TYK2 IC50
[2] = target: Recombinant human JAK2 (catalytic domain, amino acids 808-1132) (Homo sapiens, UniProt O60674); test: JAK2 inhibition assay; format: biochemical; details: read-out: JAK2 potency IC50

Chains of the proteins cited; added tags and fusions are not shown. Residues count along the entry.
UniProt P29597, 871-1187 limits assumed: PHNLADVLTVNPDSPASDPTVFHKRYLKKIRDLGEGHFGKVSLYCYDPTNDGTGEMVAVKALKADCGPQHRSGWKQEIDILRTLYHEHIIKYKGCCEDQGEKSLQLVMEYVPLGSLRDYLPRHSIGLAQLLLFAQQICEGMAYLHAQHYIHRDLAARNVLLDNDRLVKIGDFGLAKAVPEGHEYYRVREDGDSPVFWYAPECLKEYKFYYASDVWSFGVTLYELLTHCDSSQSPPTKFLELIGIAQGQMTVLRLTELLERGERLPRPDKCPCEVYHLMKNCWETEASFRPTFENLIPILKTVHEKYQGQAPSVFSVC
UniProt O60674, 808-1132 limits assumed: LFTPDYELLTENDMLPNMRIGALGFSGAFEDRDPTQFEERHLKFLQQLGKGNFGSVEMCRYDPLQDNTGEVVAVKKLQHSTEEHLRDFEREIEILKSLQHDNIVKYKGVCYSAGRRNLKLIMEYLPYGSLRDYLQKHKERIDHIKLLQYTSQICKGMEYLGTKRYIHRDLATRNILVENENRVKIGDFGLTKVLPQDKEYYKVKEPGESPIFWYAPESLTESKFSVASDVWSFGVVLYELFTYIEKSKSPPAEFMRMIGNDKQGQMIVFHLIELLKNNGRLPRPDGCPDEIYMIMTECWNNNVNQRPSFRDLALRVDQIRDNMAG

Q: What does the source list for Cc1cc(C#N)ncc1Oc1cc(Nc2ccc(C(=O)N3CCC4(CCOC4)C3)cn2)c2ncn(C)c2n1 (centres unmarked)?
A: IC50 [1]: 3 nM; IC50 [2]: 20 nM

From US11564923B2, “Compounds and pharmaceutical compositions thereof for the treatment of inflammatory disorders” (Galapagos NV, priority 2017, dated 2023)
